Results from publication PMC12139522.

Target: actin (G-actin polymerised to F-actin) used in the low-speed co-sedimentation assays (UniProt P68135)
Test: co-sedimentation; low-speed (13,500 x g, 30 min, 4°C) F-actin co-sedimentation; 3.0 μM G-actin incubated 1.5 h at RT with TPRN or control protein in 10 mM Tris pH 7.5, 1 mM ATP, 50 mM KCl, 2 mM MgCl2; actin in supernatant and pellet by SDS-PAGE and Coomassie

concentration of TRX-TPRN that saturates the binding sites of 3 μM F-actin: 100 nM
percent of actin in the pellet: > 90%
Substance: TRX-TPRN (mouse full-length taperin with an N-terminal thioredoxin tag) (from UniProt A2AI08 1-749) (natural protein)
